“And” between values parts separate entries of the source, which are not always exact repeats. Equal values may be shown once. The entries are a selection whose mix differs from that of the whole data set. Inconclusive results are not listed. Entries that show only a call come without a potency. The source made the active and inactive calls. Unless noted, the call rests on the fitted dose curve; in most records, active means well fitted curve in the direction sought with a large enough effect in the repeat runs; inconclusive means weak or mixed curves; inactive means no such curve, though single readings can be large; an effect the other way counts as inactive or inconclusive.
Columns and labels:
[1] = qHTS assay to identify small molecule agonists of the TGF-beta/Smad signaling pathway - cell viability counter screen (AID 1346829); further: nearly all actives have a fitted effect of over 45% in size; further: potency means the concentration at half of the fitted maximal effect; on activity change, negative = cytotoxicity: top concentration of the series differs between compounds
Summary of the method: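 Here the cytotoxicity of library compounds is measured in SBE-bla HEK 293T cells treated for 5 hr, using CellTiter-Glo added to wells already read for the beta-lactamase reporter.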

Protein sequences, listed by entry. Tags and fused reporters are not part of them. Lines headed by an entry give the natural chain unless they say otherwise; changes in a name come on top.
UniProt P34981: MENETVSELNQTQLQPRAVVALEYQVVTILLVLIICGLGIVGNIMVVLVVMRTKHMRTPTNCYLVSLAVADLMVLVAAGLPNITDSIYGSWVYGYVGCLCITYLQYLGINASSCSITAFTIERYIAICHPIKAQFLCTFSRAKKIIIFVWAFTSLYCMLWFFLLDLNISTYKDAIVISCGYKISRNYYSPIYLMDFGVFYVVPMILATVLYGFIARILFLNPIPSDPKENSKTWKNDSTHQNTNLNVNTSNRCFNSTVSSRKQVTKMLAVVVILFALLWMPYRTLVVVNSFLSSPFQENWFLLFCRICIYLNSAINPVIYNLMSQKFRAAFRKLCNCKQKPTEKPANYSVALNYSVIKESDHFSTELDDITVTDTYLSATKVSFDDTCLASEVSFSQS
UniProt O75469: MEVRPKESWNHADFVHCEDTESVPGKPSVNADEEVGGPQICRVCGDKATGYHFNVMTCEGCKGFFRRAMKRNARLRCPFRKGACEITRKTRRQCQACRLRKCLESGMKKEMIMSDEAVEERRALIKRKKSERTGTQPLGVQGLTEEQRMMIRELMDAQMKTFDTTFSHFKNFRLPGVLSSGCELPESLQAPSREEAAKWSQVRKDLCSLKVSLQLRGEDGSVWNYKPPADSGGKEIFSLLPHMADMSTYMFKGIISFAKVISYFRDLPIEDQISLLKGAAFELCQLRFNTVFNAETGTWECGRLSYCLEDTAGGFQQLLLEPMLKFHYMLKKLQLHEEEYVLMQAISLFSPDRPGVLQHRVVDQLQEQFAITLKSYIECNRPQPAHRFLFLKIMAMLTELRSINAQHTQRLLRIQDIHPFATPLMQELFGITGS
UniProt P22303: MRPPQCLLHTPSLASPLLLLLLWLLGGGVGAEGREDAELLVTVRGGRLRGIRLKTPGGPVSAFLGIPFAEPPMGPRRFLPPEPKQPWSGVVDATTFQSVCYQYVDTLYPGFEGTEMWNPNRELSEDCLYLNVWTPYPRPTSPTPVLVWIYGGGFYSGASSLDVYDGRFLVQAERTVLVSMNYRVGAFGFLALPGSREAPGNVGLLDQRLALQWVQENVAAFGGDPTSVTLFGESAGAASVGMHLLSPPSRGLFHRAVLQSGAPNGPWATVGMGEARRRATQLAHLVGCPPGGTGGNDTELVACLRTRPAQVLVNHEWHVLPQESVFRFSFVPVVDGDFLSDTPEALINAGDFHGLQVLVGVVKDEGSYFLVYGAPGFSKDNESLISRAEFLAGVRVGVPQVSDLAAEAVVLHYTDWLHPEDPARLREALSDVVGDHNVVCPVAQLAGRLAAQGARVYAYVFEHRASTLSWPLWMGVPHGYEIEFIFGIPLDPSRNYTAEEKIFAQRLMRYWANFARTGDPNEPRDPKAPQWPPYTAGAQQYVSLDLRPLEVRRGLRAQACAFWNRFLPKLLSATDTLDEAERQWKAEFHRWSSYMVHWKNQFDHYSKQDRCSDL
UniProt P10635, whole entry, looked up: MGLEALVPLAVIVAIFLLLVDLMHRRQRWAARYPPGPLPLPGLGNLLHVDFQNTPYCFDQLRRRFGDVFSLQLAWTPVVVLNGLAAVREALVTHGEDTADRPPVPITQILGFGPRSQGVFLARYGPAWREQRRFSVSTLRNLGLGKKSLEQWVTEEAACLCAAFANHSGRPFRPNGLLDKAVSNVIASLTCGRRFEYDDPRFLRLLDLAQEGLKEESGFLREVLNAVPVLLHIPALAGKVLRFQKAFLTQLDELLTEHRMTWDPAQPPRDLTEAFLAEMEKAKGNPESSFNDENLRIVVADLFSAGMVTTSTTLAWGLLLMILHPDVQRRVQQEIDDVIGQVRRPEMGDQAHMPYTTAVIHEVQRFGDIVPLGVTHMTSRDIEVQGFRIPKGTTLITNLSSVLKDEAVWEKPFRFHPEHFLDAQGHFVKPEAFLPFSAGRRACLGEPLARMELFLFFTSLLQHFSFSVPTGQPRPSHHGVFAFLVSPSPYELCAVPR
UniProt P11712, whole entry, looked up: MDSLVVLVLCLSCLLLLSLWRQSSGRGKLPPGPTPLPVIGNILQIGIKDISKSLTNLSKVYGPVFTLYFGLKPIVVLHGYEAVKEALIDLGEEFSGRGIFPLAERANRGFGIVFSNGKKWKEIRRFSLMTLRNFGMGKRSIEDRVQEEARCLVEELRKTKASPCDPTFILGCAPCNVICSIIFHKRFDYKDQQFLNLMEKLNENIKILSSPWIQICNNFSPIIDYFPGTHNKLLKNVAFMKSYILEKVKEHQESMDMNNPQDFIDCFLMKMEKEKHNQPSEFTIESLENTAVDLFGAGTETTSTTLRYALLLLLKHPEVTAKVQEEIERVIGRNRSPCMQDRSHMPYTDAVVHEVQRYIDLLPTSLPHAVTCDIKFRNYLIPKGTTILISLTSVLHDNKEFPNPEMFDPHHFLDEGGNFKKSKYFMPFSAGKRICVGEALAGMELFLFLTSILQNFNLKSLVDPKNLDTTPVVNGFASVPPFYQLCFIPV
UniProt Q12809: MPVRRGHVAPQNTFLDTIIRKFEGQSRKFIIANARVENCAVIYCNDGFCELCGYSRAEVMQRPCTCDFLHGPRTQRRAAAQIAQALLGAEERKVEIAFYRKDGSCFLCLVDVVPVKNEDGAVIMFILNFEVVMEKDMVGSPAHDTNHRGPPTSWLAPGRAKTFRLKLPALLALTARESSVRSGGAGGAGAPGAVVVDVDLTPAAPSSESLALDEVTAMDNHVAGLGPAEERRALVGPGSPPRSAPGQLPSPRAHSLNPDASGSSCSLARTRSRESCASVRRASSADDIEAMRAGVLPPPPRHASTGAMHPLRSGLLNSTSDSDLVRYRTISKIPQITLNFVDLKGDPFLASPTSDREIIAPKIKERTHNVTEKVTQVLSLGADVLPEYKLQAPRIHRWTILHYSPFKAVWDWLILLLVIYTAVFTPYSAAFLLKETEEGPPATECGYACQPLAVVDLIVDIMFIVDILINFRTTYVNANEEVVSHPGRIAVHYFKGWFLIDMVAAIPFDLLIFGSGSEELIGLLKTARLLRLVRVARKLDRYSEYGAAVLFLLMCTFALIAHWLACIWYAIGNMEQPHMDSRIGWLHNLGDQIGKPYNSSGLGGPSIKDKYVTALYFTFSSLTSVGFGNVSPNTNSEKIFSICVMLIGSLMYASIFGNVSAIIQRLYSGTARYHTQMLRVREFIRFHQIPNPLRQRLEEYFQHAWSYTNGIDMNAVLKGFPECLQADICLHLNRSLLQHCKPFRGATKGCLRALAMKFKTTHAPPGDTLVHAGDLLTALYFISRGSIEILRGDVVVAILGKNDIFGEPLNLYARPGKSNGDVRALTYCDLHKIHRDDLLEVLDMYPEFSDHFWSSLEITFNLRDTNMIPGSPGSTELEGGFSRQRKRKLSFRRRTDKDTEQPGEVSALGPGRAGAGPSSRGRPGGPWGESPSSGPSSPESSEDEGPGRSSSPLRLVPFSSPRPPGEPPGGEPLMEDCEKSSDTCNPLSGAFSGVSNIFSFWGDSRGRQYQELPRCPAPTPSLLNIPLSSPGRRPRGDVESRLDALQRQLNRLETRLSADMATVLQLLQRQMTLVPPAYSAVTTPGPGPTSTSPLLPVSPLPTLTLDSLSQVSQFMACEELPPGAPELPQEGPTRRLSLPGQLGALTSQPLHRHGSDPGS
UniProt P08684, whole entry, looked up: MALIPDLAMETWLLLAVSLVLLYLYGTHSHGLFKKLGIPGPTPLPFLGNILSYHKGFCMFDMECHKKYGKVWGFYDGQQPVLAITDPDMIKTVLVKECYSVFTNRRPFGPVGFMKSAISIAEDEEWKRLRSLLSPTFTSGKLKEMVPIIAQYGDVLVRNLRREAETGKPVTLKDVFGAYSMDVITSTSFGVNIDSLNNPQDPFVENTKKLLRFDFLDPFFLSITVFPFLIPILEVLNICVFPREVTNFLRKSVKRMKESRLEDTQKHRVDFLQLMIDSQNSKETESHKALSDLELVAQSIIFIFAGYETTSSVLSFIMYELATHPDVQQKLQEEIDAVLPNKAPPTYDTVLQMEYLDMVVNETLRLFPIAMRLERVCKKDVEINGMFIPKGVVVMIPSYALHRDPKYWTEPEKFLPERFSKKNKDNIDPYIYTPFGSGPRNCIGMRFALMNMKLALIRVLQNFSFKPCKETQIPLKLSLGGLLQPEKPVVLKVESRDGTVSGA

[2] = qHTS assay to identify small molecule agonists of the TGF-beta/Smad signaling pathway (AID 1346859; active means well fitted activation curve with a large enough effect in the signal ratio in the repeat runs, not every such curve was filed as active; the % refers to the signal ratio); details: SBE-bla HEK293T, TGF-beta/Smad beta-lactamase reporter, 5 h
Summary of the method: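 Fluorescence (ex 405 nm; em 460 and 530 nm) was read 2 h after LiveBLAzer FRET substrate at RT. The preceding compound treatment of overnight-plated SBE-bla HEK293T cells lasted 5 h at 37 C.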

[3] = biological target: Thyrotropin-releasing hormone receptor (Homo sapiens) (UniProt P34981); assay: qHTS assay to identify small molecule antagonists of the thyrotropin-releasing hormone receptor (TRHR) signaling pathway (AID 1346877; active means well fitted inhibition curve with a large enough effect in the repeat runs, not every such curve was filed as active)
[4] = biological target: Thyrotropin-releasing hormone receptor (Homo sapiens) (UniProt P34981); assay: qHTS assay to identify small molecule agonists of the thyrotropin-releasing hormone receptor (TRHR) signaling pathway (AID 1346891; calls by dose curve;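 further: HEK293 cells expressing TRHR with calcium dye readout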); details: TRHR-HEK293 calcium fluorescence, agonist mode
[5] = Human pregnane X receptor (PXR) small molecule agonists, qHTS cell viability counter screen (AID 1346977); further: nearly all actives have a fitted effect of over 50% in size; further: potency means the concentration at half of the fitted maximal effect
Summary of the method: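 Same-well viability read: CellTiter-Fluor added after 23 hr compound exposure, fluorescence measured 1 hr later. Cells were PXR-Luc HepG2 seeded at 2,000/well in 5% charcoal-stripped FBS medium, rested 5 hr before dosing at 37 C.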

[6] = Caspase-3/7 induction in CHO-K1 cells by small molecules, qHTS cell viability counter screen (AID 1346979); further: nearly all actives have a fitted effect of over 35% in size; further: potency means the concentration at half of the fitted maximal effect
Summary of the method: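 Cytotoxicity counter screen: CellTiter-Fluor added to compound-treated wild-type CHO-K1 cells at 16 h (37C, 5% CO2), fluorescence measured 1 h later; same wells as caspase-3/7 measurement.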

[7] = Caspase-3/7 induction in CHO-K1 cells by small molecules, qHTS assay (AID 1346980); details: CHO-K1 caspase-3/7 induction, Caspase-Glo luminescence, 17 h; further: nearly all actives have a fitted effect of over 15% in size
Summary of the method: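 Wild-type CHO-K1 cells exposed to compounds for 17hr at 37 C, 5% CO2. Caspase-3/7 activity then measured by Caspase-Glo 3/7 luminescence after 30min at room temperature.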

[8] = Caspase-3/7 induction in HepG2 cells by small molecules, qHTS cell viability counter screen (AID 1346981); further: nearly all actives have a fitted effect of over 30% in size; further: potency means the concentration at half of the fitted maximal effect
Summary of the method: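 Fluorescence read-out of live-cell protease activity (CellTiter-Fluor) after 1 hr with reagent. This was measured in the same wells as the caspase-3/7 luminescence, on HepG2 cells exposed to DMSO-dissolved compounds for 16 hr at 37 C.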

[9] = biological target: Nuclear receptor subfamily 1 group I member 2 (Homo sapiens) (UniProt O75469); assay: Human pregnane X receptor (PXR) small molecule agonists, qHTS assay (AID 1346982); further: nearly all actives have a fitted effect of over 35% in size; further: potency means the concentration at half of the fitted maximal effect
Summary of the method: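 HepG2 PXR-Luc reporter line, 5% charcoal-stripped FBS; 5 hr pre-incubation, compound (DMSO) 24 hr at 37 C/5% CO2; ONE-Glo 30 min RT; luminescence read-out.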

[10] = biological target: Acetylcholinesterase (Homo sapiens) (UniProt P22303); assay: Acetylcholinesterase (AChE) small molecule antagonists: enzyme-based qHTS assay with human liver microsomes (AID 1347399; calls by dose curve; further: nearly all actives have a fitted effect of over 60% in size; further: potency means the concentration at half of the fitted maximal effect); details: Potency: qHTS inhibition
Summary of the method: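 Recombinant human AChE (50 mU/mL in the enzyme mix) and human liver microsomes (0.25 mg/mL final) were preincubated with compound and NADPH (0.25 mg/mL final) for 30 min at 37 C. Acetylthiocholine/DTNB was then added; thiocholine was read colorimetrically after 10 min at room temperature.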

[11] = biological target: Cytochrome P450 2D6 (Homo sapiens) (UniProt P10635); assay: Cytochrome P450 Family 2 Subfamily D Member 6 (CYP2D6) small molecule antagonists: luciferase reporter qHTS assay (AID 1671196); further: nearly all actives have a fitted effect of over 50% in size; further: potency means the concentration at half of the fitted maximal effect
Summary of the method: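 Luminogenic proluciferin substrate, CYP2D6 enzyme; 10 min RT preincubation with compound, NADPH regeneration system added, 1 h RT. Stop/detection reagent, 20 min RT, luminescence read (RLU). Signal proportional to CYP activity.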

[12] = biological target: Cytochrome P450 2C9 (Homo sapiens) (UniProt P11712); assay: Cytochrome P450 Family 2 Subfamily C Member 9 (CYP2C9) small molecule antagonists: luciferase reporter qHTS assay (AID 1671198); further: nearly all actives have a fitted effect of over 50% in size; further: potency means the concentration at half of the fitted maximal effect
Summary of the method: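 P450-Glo proluciferin substrate with CYP2C9 enzyme; 10 min RT preincubation, then NADPH regeneration 1 h at 37C; luciferin detection reagent 20 min RT, luminescence in relative luminescence units.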

[13] = biological target: Voltage-gated inwardly rectifying potassium channel KCNH2 (Homo sapiens) (UniProt Q12809); assay: Human Ether-a-go-go-Related Gene (hERG) channel small molecule antagonists: fluorescence cell-based qHTS assay (AID 1671200); further: nearly all actives have a fitted effect of over 50% in size
Summary of the method: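 Thallium flux as potassium surrogate: FluxOR II dye loaded 1 h at room temperature into hERG-expressing U2OS cells, then stimulus buffer added after 10 min. Kinetic 480 nm excitation/540 nm emission read, 2 min.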

[14] = biological target: Cytochrome P450 3A4 (Homo sapiens) (UniProt P08684); assay: Cytochrome P450 Family 3 Subfamily A Member 4 (CYP3A4) small molecule antagonists: luciferase reporter qHTS assay (AID 1671201); further: nearly all actives have a fitted effect of over 50% in size; further: potency means the concentration at half of the fitted maximal effect
Summary of the method: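 Recombinant human CYP3A4 converts a proluciferin substrate to luciferin over 1 h at room temperature after NADPH regeneration solution is added (compound preincubated 10 min); detection reagent stops reaction, luminescence read 20 min later as relative units.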

[15] = at 76.8 µM (top of the series) unless noted
[16] = at 57.6 µM (top of the series) unless noted
[17] = at 92.4 µM (top of the series) unless noted

## CCCCOP(OCCCC)OCCCC
[1]
  Potency: inactive
[2]; [15]
  activation: inactive: -0.837%
[3]
  Potency: inactive
[4]; [16]
  activation: inactive: -0.0674%
[5]
  Potency: inactive
[6]
  Potency: inactive
[7]; [17]
  caspase-3/7 activation: inactive: -0.0335%
[8]
  Potency: inactive
[9]
  Potency: inactive
[10]
  Potency: inactive
[11]
  Potency: inactive
[12]
  Potency: active: 39.9 µM
[13]
  Potency: inactive

## Cc1cc([N+](=O)[O-])cc([N+](=O)[O-])c1O
[1]
  Potency: inactive
[2]; [15]
  activation: inactive: -3.86%
[3]
  Potency: inactive
[4]; [16]
  activation: inactive: 14.5% and inactive: 13.4%
[7]; [17]
  caspase-3/7 activation: inactive: -4.08% and inactive: -5.1%
[10]
  Potency: inactive
[11]
  Potency: active: 59.7 µM
[12]
  Potency: active: 20 µM and active: 21.8 µM
[13]
  Potency: inactive
[14]
  Potency: inactive

## CC(C)OP(=S)(OC(C)C)SCCNS(=O)(=O)c1ccccc1
[1]
  Potency: inactive
[2]; [15]
  activation: inactive: 0.567%
[7]; [17]
  caspase-3/7 activation: inactive: -1.23%
[9]
  Potency: active: 1.54 µM

## COC(=O)Cl
[1]
  Potency: inactive
[2]; [15]
  activation: inactive: 1.45%
[3]
  Potency: inactive
[4]; [16]
  activation: inactive: 0.0583%
[5]
  Potency: inactive
[6]
  Potency: inactive
[7]; [17]
  caspase-3/7 activation: inactive: 1.31%
[8]
  Potency: inactive
[9]
  Potency: inactive
[10]
  Potency: inactive
[12]
  Potency: inactive
[13]
  Potency: inactive
[14]
  Potency: inactive

## O=[N+]([O-])c1ccc(S(=O)(=O)O)c([N+](=O)[O-])c1
[1]
  Potency: inactive
[2]; [15]
  activation: inactive: 2.26%
[5]
  Potency: inactive
[6]
  Potency: inactive
[7]; [17]
  caspase-3/7 activation: inactive: -1.43%
[8]
  Potency: inactive
[9]
  Potency: inactive

## O=[As]c1ccccc1 (configuration not stated)
[1]
  Potency: active: 1.74 µM
[2]; [15]
  activation: inactive: -1.58%
[3]
  Potency: inactive
[4]; [16]
  activation: inactive: 16.8%
[5]
  Potency: active: 0.344 µM
[6]
  Potency: active: 0.0686 µM
[7]; [17]
  caspase-3/7 activation: inactive: -6.07%
[8]
  Potency: active: 0.864 µM
[9]
  Potency: inactive
[10]
  Potency: inactive
[11]
  Potency: active: 20 µM
[12]
  Potency: inactive
[14]
  Potency: inactive

## NC(=O)Nc1ccc([As](=O)(O)O)cc1
[1]
  Potency: inactive
[2]; at 35.3 µM (top of the series)
  activation: inactive: -0.215%
[2]; at 76.8 µM (top of the series)
  activation: inactive: 2.08%
[3]
  Potency: inactive
[4]; at 26.5 µM (top of the series)
  activation: inactive: -0.346%
[4]; at 57.6 µM (top of the series)
  activation: inactive: -0.0368%
[5]
  Potency: inactive
[6]
  Potency: inactive
[7]; at 42.5 µM (top of the series)
  caspase-3/7 activation: inactive: -1.01%
[7]; at 92.4 µM (top of the series)
  caspase-3/7 activation: inactive: 0.859%
[8]
  Potency: inactive
[9]
  Potency: inactive
[13]
  Potency: inactive

## CCCCO[P+](=O)OCCCC
[1]
  Potency: inactive
[5]
  Potency: inactive
[6]
  Potency: inactive
[7]; [17]
  caspase-3/7 activation: inactive: -0.21% and inactive: -1.83%
[8]
  Potency: inactive
[9]
  Potency: inactive
[10]
  Potency: inactive
[11]
  Potency: inactive
[12]
  Potency: inactive
[13]
  Potency: inactive
[14]
  Potency: inactive

## CCC(C)(OOC(C)(C)C)OOC(C)(C)C
[1]
  activity change, negative = cytotoxicity: inactive: -0.297% [at 15.8 µM]
[2]; [15]
  activation: inactive: 4.22% [at 15.8 µM]
[3]
  activity, negative = inhibition: inactive: -1.63% [at 10.5 µM]
[4]; [16]
  activation: inactive: 0.126% [at 11.8 µM]
[5]
  activity change, negative = cytotoxicity: inactive: 1.63% [at 19 µM]
[6]
  activity change, negative = cytotoxicity: inactive: 6.16% [at 19 µM]
[7]; [17]
  caspase-3/7 activation: inactive: -1.34% [at 19 µM]
[8]
  activity change, negative = cytotoxicity: inactive: 2.28% [at 19 µM]
[9]
  activation: inactive: 4.75% [at 19 µM]
[10]
  activity change, negative = inhibition: inactive: 0.172% [at 23.6 µM]
[11]
  activity change, negative = inhibition: inactive: -2.36% [at 23.6 µM]
[12]
  activity change, negative = inhibition: inactive: 4.4% [at 23.6 µM]
[13]
  activity change, negative = inhibition: inactive: 0.148% [at 15.8 µM]
[14]
  activity change, negative = inhibition: inactive: -9.74% [at 23.6 µM]

## CCOP(=S)(CC)Sc1ccccc1 (configuration not stated)
[1]
  Potency: inactive
[2]; [15]
  activation: inactive: -0.766%
[5]
  Potency: inactive
[6]
  Potency: inactive
[7]; [17]
  caspase-3/7 activation: inactive: -0.0111%
[8]
  Potency: inactive
[9]
  Potency: inactive
[10]
  Potency: active: 2.24 µM
[11]
  Potency: active: 31.6 µM
[12]
  Potency: active: 5.62 µM
[14]
  Potency: active: 1.58 µM

## O=P(Cl)(Oc1ccccc1)Oc1ccccc1
[1]
  Potency: inactive
[2]; [15]
  activation: inactive: -0.0815%
[3]
  Potency: inactive
[4]; [16]
  activation: inactive: -0.407%
[6]
  Potency: inactive
[7]; [17]
  caspase-3/7 activation: inactive: 0.37%
[8]
  Potency: inactive
[9]
  Potency: inactive
[10]
  Potency: inactive
[11]
  Potency: inactive
[12]
  Potency: active: 39.9 µM
[13]
  Potency: inactive
[14]
  Potency: inactive

## O=[P+](Oc1ccccc1)Oc1ccccc1
[1]
  Potency: inactive
[2]; [15]
  activation: inactive: -0.678%
[3]
  Potency: inactive
[4]; [16]
  activation: inactive: -0.607%
[5]
  Potency: inactive
[6]
  Potency: inactive
[7]; [17]
  caspase-3/7 activation: inactive: 0.574%
[8]
  Potency: inactive
[9]
  Potency: inactive
[10]
  Potency: inactive
[11]
  Potency: inactive
[13]
  Potency: inactive
[14]
  Potency: inactive

## N#CSc1ccc([N+](=O)[O-])cc1[N+](=O)[O-]
[2]; [15]
  activation: inactive: -0.0222%
[3]
  Potency: inactive
[4]; [16]
  activation: inactive: 10.3%
[7]; [17]
  caspase-3/7 activation: inactive: -6.7%
[9]
  Potency: active: 1.93 µM

## CN(N=O)C(=N)N[N+](=O)[O-]
[1]
  Potency: inactive
[2]; [15]
  activation: inactive: -0.0437%
[3]
  Potency: inactive
[4]; [16]
  activation: inactive: 0.0103%
[7]; [17]
  caspase-3/7 activation: inactive: -1.53%
[13]
  Potency: inactive

## CN(C(=O)Cc1ccc(Cl)c(Cl)c1)[C@H]1CC[C@@]2(CCCO2)C[C@@H]1N1CCCC1
[1]
  Potency: inactive
[2]; [15]
  activation: inactive: -3.19% [at 35.3 µM]
[3]
  Potency: inactive
[4]; [16]
  activation: inactive: 0.303% [at 26.5 µM]
[6]
  Potency: inactive
[7]; [17]
  caspase-3/7 activation: inactive: -0.809% [at 42.5 µM]
[8]
  Potency: inactive
[10]
  Potency: inactive
[11]
  Potency: active: 3.89 µM
[12]
  Potency: inactive
[14]
  Potency: active: 0.776 µM

## CN(C(=O)Cc1ccccc1)[C@H]1CC[C@@]2(CCCO2)C[C@@H]1N1CCCC1
[1]
  Potency: inactive
[2]; [15]
  activation: inactive: -1.41% [at 35.3 µM]
[3]
  Potency: inactive
[4]; [16]
  activation: inactive: -0.123% [at 26.5 µM]
[7]; [17]
  caspase-3/7 activation: inactive: -0.0337% [at 42.5 µM]
[10]
  Potency: inactive
[11]
  Potency: active: 12.3 µM
[12]
  Potency: inactive
[13]
  Potency: inactive
[14]
  Potency: active: 12.3 µM

— PubChem BioAssay (Tox21)
